Binding of CDR-mutated scFvs to a peptide of the spike HR2 region

From the AlphaSeq antibody data of Engelhart et al. 2022 (doi:10.1038/s41597-022-01779-4), copy in the FLAb collection.

Antigen: PDVDLGDISGINAS, a 14-residue peptide of the SARS-CoV-2 spike HR2 region.

Each scFv is VH, the linker GGGGSGGGGSGGGGS, VL, as in the parent Ab-14, and differs from it in the CDRs of the heavy chain only.
VH: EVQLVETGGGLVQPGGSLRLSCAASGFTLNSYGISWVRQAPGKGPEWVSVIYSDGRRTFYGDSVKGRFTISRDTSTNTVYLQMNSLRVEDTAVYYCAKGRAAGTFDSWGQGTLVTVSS
VL: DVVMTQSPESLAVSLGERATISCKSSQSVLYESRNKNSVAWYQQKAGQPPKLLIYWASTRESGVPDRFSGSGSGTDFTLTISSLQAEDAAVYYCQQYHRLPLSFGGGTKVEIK

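In library AAYL49, one, two or three CDR residues were substituted; doubles and triples were drawn at random. Affinity was read by AlphaSeq, a pooled yeast mating assay with surface-displayed partners. Binding brings cells together so that they mate, and sequencing counts the barcode pairs among the diploids. Scores were corrected for input abundance and mapped to Kd with protein pairs of known affinity run in the same pool. Mating was done three times.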

The parent's heavy chain CDRs are GFTLNSYGIS, VIYSDGRRTFYGDSVK, GRAAGTFDS; each variant's own CDRs replace them letter for letter.
The Kd shown is the geometric mean over detected replicates; a lower Kd is a better binder.
Where no diploid with the target was found in any replicate, the entry reads "nd": below detection, most likely a poor binder, though not proof of it.
Entries are sorted by rising average, undetected variants last.

The variant GFTLQSYGIS | VIYSDGRRTAYGDSVK | GRAAGTFDS gave 1.8 nM (3 of 3 replicates).
The variant GFTLNSYGIS | VIYSDGDRTMYGDSVK | GRYAGTFDS gave 35 nM (3 of 3 replicates).
The variant GFTLRSYGIS | VIYSDGRRTFYGDSVK | GAMAGTFDS gave 40 nM (3 of 3 replicates).
The variant GFTLNSYGIS | VIYSDGRRTFYGDRVK | GRGAGTYDS gave 96 nM (3 of 3 replicates).
The variant GFTLNSYGIS | VIYSDGRRTFYDDSVS | GRAAHTFDS gave 110 nM (3 of 3 replicates).
The variant GFTLNSYGIS | VIYSDGRRYFYGDSVK | GRAAGTFYS gave 330 nM (3 of 3 replicates).
The variant GFTLNIYGIS | VIRSDGRRTFYGDSVK | GRAAGRFDS gave 980 nM (2 of 3 replicates).
The variant GFTLNSYGMS | VIYSDGRRTFYYDSVK | GRAAGTFDS gave 1.2 µM (1 of 3 replicates).
The variant GFTLNSYGIS | VIYSDGRRTFYKDSVK | GKAAWTFDS gave 2.2 µM (1 of 3 replicates).
The variant GFTLFSDGIS | VIYSDGRRTFYGDSVK | GRAAGTFPS gave 3.9 µM (1 of 3 replicates).
The variant GFTLNSYGIS | VIYSDERRTFYGDSVK | YRAAGTFDS gave 5.3 µM (2 of 3 replicates).
The variant GFTLNFYGIS | VIYSDIRRTFYGDSVK | LRAAGTFDS gave 5.4 µM (1 of 3 replicates).
The variant GFALNSYGIS | VIYSDGRVTFYGDSVK | GRAAGTDDS gave 5.7 µM (1 of 3 replicates).
The variant GFTLNSYGIK | VIYSDGRRDFYGDSIK | GRAAGTFDS gave 9.8 µM (2 of 3 replicates).
The variant GFSLNSYGIS | GIYSDGRRTFVGDSVK | GRAAGTFDS gave 13 µM (1 of 3 replicates).
The variant GFTLNSYGIS | VIYSDGRRAFYGDSVK | GRAEGTFDS gave 15 µM (1 of 3 replicates).
The variant GFTLNSDTIS | VIYSDGRRTFYGDSVK | GRAAGTFDS gave 23 µM (2 of 3 replicates).
The variant GFTLNSYFIS | VIYSDGRRTFYGDSVW | GRAWGTFDS gave 34 µM (2 of 3 replicates).
The variant GHTLNSYGIS | PIYSDGRNTFYGDSVK | GRAAGTFDS gave 78 µM (2 of 3 replicates).
The variant DFTLNSYGIS | VIYNDGRRTFYGDAVK | GRAAGTFDS gave 490 µM (1 of 3 replicates).
The variant GFTLNSYGIS | VIENDGRRTFYGDSVK | GYAAGTFDS gave nd (0 of 3 replicates).
The variant GFTLNSDGIS | VIYSSGRRTFYGDSVK | GRAAATFDS gave nd (0 of 3 replicates).
The variant GFTLRSYGIS | VHYSDGRRTFYGDSVK | YRAAGTFDS gave nd (0 of 3 replicates).
The variant GFTVNSYGIS | VRYSDGRRTLYGDSVK | GRAAGTFDS gave nd (0 of 3 replicates).
The variant GFFLNSYGIS | VIYSDPRRTFSGDSVK | GRAAGTFDS gave nd (0 of 3 replicates).
The variant GFTLNSYGIL | SIYSDGRRTFYGDSVK | GRAAGTFDN gave nd (0 of 3 replicates).
The variant GFTLNPYGIS | VIYSDGRRTFYGDSVK | GRAAGNQDS gave nd (0 of 3 replicates).
The variant GFTLNSYGIS | VIYSEGRRLFAGDSVK | GRAAGTFDS gave nd (0 of 3 replicates).
The variant GFTLNIYGIS | VIYSDGRLTFYGDSVK | GRAAGTFDI gave nd (0 of 3 replicates).
The variant GFTLNSYGIS | VLYSDGRMTFYWDSVK | GRAAGTFDS gave nd (0 of 3 replicates).
The variant GFTLNSYGLS | VIYSDGRRTFYGWSVK | GRAAGTFHS gave nd (0 of 3 replicates).
The variant GFCLNSYGIS | EIYSDGRRTVYGDSVK | GRAAGTFDS gave nd (0 of 3 replicates).
The variant GFTLNSYGIS | VIYSDGRRTFYLDSVC | GRAAPTFDS gave nd (0 of 3 replicates).
The variant GFTLNSYGRS | VIVSDGRRTFYGDSVK | GRAAGTMDS gave nd (0 of 3 replicates).
The variant GFLLNSLGIS | VIYPDGRRTFYGDSVK | GRAAGTFDS gave nd (0 of 3 replicates).
The variant GFTLNSYGIS | LIYSDGRRTFYGDRVK | GRAAGPFDS gave nd (0 of 3 replicates).

Excerpt, the final 3 entries:

CDR-H1	CDR-H2	CDR-H3	Kd (apparent)	replicates with signal
GFTLNSYGRS	VIVSDGRRTFYGDSVK	GRAAGTMDS	nd	0/3
GFLLNSLGIS	VIYPDGRRTFYGDSVK	GRAAGTFDS	nd	0/3
GFTLNSYGIS	LIYSDGRRTFYGDRVK	GRAAGPFDS	nd	0/3

As a blank, each scFv also met three strains without target: over library AAYL49, 15% of these pairings were detected, typically at 11 µM and seldom below 680 nM.
In this assay the parent's reference entry averaged 4.4 nM; its copy inside this library read 13 µM (one replicate of three).